Where “and” joins values, the source holds several entries; their conditions need not be identical. Identical values can stand only once.

Series [1] concerns mutant PXR.1 (C285I/C301A). As to the kind of experiment: PXR luciferase reporter assay in HEK293T cells, mutant PXR.1. The following applies: 10 μM, replicate wells, listed as RIF. It counts as cell-based, human. Background: In a reporter assay the amount or activity of a reporter protein is the signal.
The test system of series [2] is NF-κB. In words: TNF-α-induced NF-κB reporter assay in LS174T PXR-KO cells. The following applies: for NFkB NanoLuc luminescence, aver: LS174T PXR-KO, EXP3.
Series [3] deals with NF-κB. In words: TNF-α-induced NF-κB reporter assay in LS180 cells with or without PXR co-transfection.
Setting [4] is: NFkB transfected LS180 cells, 8th pass, EXP1, 10 uM + TNFa 5 ng/ml.
Setting [5] is: NFkB transfected LS180 cells, 13th pass, EXP2, 10 uM + TNFa 5 ng/ml.
[6] abbreviates: NFkB+PXR transfected LS180 cells, 8th pass, EXP1, 10 uM + TNFa 5 ng/ml.
Where [7] appears, read: NFkB+PXR transfected LS180 cells, 13th pass, EXP2, 10 uM + TNFa 5 ng/ml.

`CO[C@H]1/C=C/O[C@@]2(C)Oc3c(C)c(O)c4c(O)c(c(/C=N/N5CCN(C)CC5)c(O)c4c3C2=O)NC(=O)/C(C)=C\C=C\[C@H](C)[C@H](O)[C@@H](C)[C@@H](O)[C@@H](C)[C@H](OC(C)=O)[C@@H]1C` [Rifampicin, reference compound]: the “PXR reporter activity, RLU/B-Gal” value in series [1] is 36487.3 RLU/B-Gal and 30301.7 RLU/B-Gal and 31078.1 RLU/B-Gal. In addition, the “NFkB NanoLuc luminescence, aver” value came to 52239.7 with NF-κB [2] (10 μM + TNFα 5 ng/ml) and 265.7 with NF-κB [2] (10 uM, no TNFα). Moreover, in the series with NF-κB [2] (TNF-exposed PXR-KO cells), the NF-κB reporter activity result is “neither rifampicin nor FKK6 repressed”. Further, the “NFkB reporter luminescence, aver” value in the series with NF-κB [3] (setting [4]) came out at 114193.5; in the series with NF-κB [3] (NFkB transfected LS180 cells, 8th pass, EXP1, 10 uM, no TNFα), 1111.8; with NF-κB [3] (setting [5]), 77480.5; in the series with NF-κB [3] (NFkB transfected LS180 cells, 13th pass, EXP2, 10 uM, no TNFα), 528.5; in the series on NF-κB [3] (setting [6]) it was 60512.0; in the series with NF-κB [3] (NFkB+PXR transfected LS180 cells, 8th pass, EXP1, 10 uM, no TNFα) it was 1540.5. The “NFkB reporter luminescence, aver” value in the series on NF-κB [3] (setting [7]) was determined as 25990.0; with NF-κB [3] (NFkB+PXR transfected LS180 cells, 13th pass, EXP2, 10 uM, no TNFα), 557.0. The “NFkB reporter, % max” value in the series with NF-κB [3] (setting [4]) amounted to 116.3%; in the series with NF-κB [3] (setting [5]) it was 79.0%; with NF-κB [3] (setting [6]) it was 69.8%; in the series with NF-κB [3] (setting [7]) it was 46.3%.

The values above are taken from PMC7136958, “Targeting the pregnane X receptor using microbial metabolite mimicry” (EMBO Molecular Medicine, 2020).
